From publication PMC5843355, “Evaluation of the Trypanosoma brucei 6-oxopurine salvage pathway as a potential target for drug discovery” (PLoS Neglected Tropical Diseases, 2018)

System: T. brucei BF427 cell line
Test: Alamar Blue assay, sensitivity of bloodstream form T. brucei to ANP prodrugs
Assay type: cell-based, Trypanosoma brucei
Details: average CC50 for A549 divided by average EC50 for T. brucei BF427

`Nc1nc2c(ncn2CCN(CCN(CCP(=O)(O)O)CCP(=O)(O)O)CCP(=O)(O)O)c(=O)[nH]1` [compound 4] was tested, and the “Estimated selectivity index (SI)” value was “very favourable”.
